Data from patent US11325952B2, “Light-gated signaling modulation” (Korea University Research and Business Foundation, priority 2016, dated 2022).

Target: dopamine 2 receptor (DRD2) (Rattus norvegicus, UniProt P61169)

CCCN1CCC[C@@H]2Cc3n[nH]cc3C[C@H]21 [quinpirole]
gene expression upon DRD2 agonist: dose-dependent manner
